Assay: In vitro aerosolization performance from MDI (Next Generation Impactor)
Type: physicochemical
Description: The nominal dose of glycopyrronium bromide was 50 μg, the nominal dose of indacaterol was 100 μg and the nominal dose of fluticasone propionate was 125 μg.

- FPFED (%) fine particle fraction of the emitted dose (HFA-134a propellant, T = 0, combination formulation, MDI): 28.7 ± 0.2%
- FPFED (%) fine particle fraction of the emitted dose (HFA-134a propellant, T = 1 month @ 40° C./75% RH, valve down): 29.4 ± 0.5%
- FPFED (%) fine particle fraction of the emitted dose (HFA-152a propellant, T = 1 month @ 40° C./75% RH, valve down): 45.8 ± 1.8%
SMILES: C[N+]1(C)CCC(OC(=O)C(O)(c2ccccc2)C2CCCC2)C1 (stereo not drawn) [Glycopyrronium Bromide, glycopyrronium bromide]

Reference: patent publication US20260174734A1, “PHARMACEUTICAL COMPOSITION” (MEXICHEM FLUOR S.A. DE C.V., priority 2016, published 2026)
